# From ChEMBL document CHEMBL1144377, “Oximinoarylsulfonamides as potent HIV protease inhibitors” (Bioorg Med Chem Lett, 2005)
# Test system: Human immunodeficiency virus 1
# Test: Inhibitory concentration against wild type human immunodeficiency virus
# Format: functional, organism-based
compound,measurement,value
Cc1cccc(C)c1OCC(=O)N[C@@H](Cc1ccccc1)[C@@H](O)C[C@H](Cc1ccccc1)NC(=O)[C@H](C(C)C)N1CCCNC1=O [LOPINAVIR],IC50,0.035 µM
